Experimental data from ChEMBL document CHEMBL1806384, “Identification of benzofuran-4,5-diones as novel and selective non-hydroxamic acid, non-peptidomimetic based inhibitors of human peptide deformylase” (Bioorg Med Chem Lett, 2011).

Assays:
[1] = molecular target: T1, Peptide deformylase (Escherichia coli, UniProt Q9JN24); assay: Inhibition of Escherichia coli peptide deformylase after 1 hr by fluorescence polarization based competition assay
T1 sequence (Q9JN24 whole entry): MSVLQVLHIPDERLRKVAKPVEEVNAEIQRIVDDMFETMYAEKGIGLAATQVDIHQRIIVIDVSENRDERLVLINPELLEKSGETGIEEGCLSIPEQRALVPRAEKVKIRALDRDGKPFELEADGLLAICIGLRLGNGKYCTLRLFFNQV

[2] = Cytotoxicity against human ALL3 cells; type: functional, cell-based
[3] = Cytotoxicity against human CWR22 cells; type: functional, cell-based

`COc1ccc(C(=O)c2coc3c2C(=O)C(=O)C(Cl)=C3Cl)cc1OC` showed an IC50 [1] of 67 µM, an IC50 [2] of 69 µM and an IC50 [3] of 68 µM.
